Assay results: PubChem BioAssay AID493237 (Broad Institute, 2011)
The entries are a selection whose mix differs from that of the whole data set. Activity calls are given as the source filed them.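 The calls were made as follows: active = fitted curve reaching 40% activation at a concentration no higher than the top valid dose tested; inconclusive = flat curve between 30 and 70% activation, or poor fit; inactive = the rest, including opposite-direction effects.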

Experiment: HRE-luciferase activation in iron medium, dose response, mechanism study for HIF pathway activator project, cell-based, U2OS, luminescence, dry powder, set 2 (AID 493237)
Settings: U2OS HRE-luciferase reporter, iron condition, at 38 µM (top of the series)
Method in brief: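 System – human U2OS osteosarcoma cells with stable 3×HRE-driven luciferase reporter · Times – 24 h pre-dosing growth, 24 h compound exposure, 37 °C · Technique – Steady-Glo luminescence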

Structure (SMILES): O=c1[nH]c2ccccc2n1C1CCN(Cc2ccc(O)c3ncccc23)CC1
- activation: inactive: -1.2%
